The list shows a part of the results, in another mix than the full data. Inconclusive results are not listed. Some structures show a salt or complex split into parts, the way the source records it. The source made the active and inactive calls. Calls follow the shape of the dose curve; as a rule, active = well fitted inhibition curve with a large enough effect; inconclusive = small, poorly fitted or top-dose-only effect; inactive = flat fitted curve, though single readings scatter.
Experiment: P-glycoprotein substrates identified in KB-8-5-11 adenocarcinoma cell line, qHTS therapeutic library screen (AID 1346987); also: nearly all actives have a fitted effect of over 65% in size
Conditions: KB-8-5-11 (P-gp overexpressing) viability, CellTiter-Glo, 72 h; at 17.3 µM (top of the series)
Excerpt: The ATP-binding cassette transporters P-glycoprotein (P-gp) is known to limit brain penetration of many chemotherapy drugs. […] As such, we developed a high-throughput screen (HTS) to identify substrates of P-gp from a series of chemical libraries including the National Center for Advancing Translational Sciences Pharmaceutical Collection NPC, 2,816 compounds), testing a total of 10,804 compounds, most of which have known mechanisms of action. We used the CellTiter-Glo viability assay to test library compounds against the parental KB-3-1 human cervical adenocarcinoma cell line and the colchicine-selected sub-line KB-8-5-11 that over-expresses P-gp. KB-8-5-11 cells were also tested in the presence of a P-gp inhibitor (tariquidar) to assess reversability of transporter-mediated resistance. Of the tested compounds, a total of 90 P-gp substrates were identified including 55 newly identified P-gp substrates. Substrates were confirmed using an orthogonal killing assay against HEK-293 cells transfected with P-gp. As exemplars, we confirmed that […] (cyclin-dependent kinase inhibitor); AT9283, (Janus kinase 2/3 inhibitor); ispinesib (kinesin spindle protein inhibitor); gedatolisib (PKI-587, phosphoinositide 3-kinase/mammalian target of rampamycin inhibitor); GSK-690693 (AKT inhibitor); and KW-2478 (heat shock protein 90 inhibitor) were substrates , and direct ATPase stimulation was assessed. ABCG2 was also found to confer high levels of resistance to AT9283, GSK-690693 and gedatolisib, while ispinesib, AT7519 and KW-2478 were weaker substrates.
The HeLa derivative cell line, KB-3-1, and its colchicine-selected, P-gp-overexpressing subline, KB-8-5-11 were maintained in DMEM with 10% FCS and Pen/Strep with glutamine at 37 degree C in 5% CO2. For KB-8-5-11 cells, colchicine was added to the medium at a concentration of 100 ng/mL. HEK-293 cells transfected with empty vector (pcDNA) or vector containing human ABCB1 (MDR-19) or ABCG2 (R-5) have been described previously (Robey, Lin, Qiu, Chan & Bates, 2011) and were maintained in EMEM supplemented with 10% FCS, Pen/Strep and glutamine with 2 mg/ml G418 to select for the expression of the transporter. Cultures were confirmed to be free of mycoplasma infection using the MycoAlert Mycoplasma Detection Kit (Lonza, Walkersville, MD). For the screen, assay medium was identical to culture medium except for KB-8-5-11 where colchicine was excluded from the medium.
All cell lines were plated into 1536-well plates at 500 cells/well in 5 uL media. Compounds were then pinned in dose-response using a 1536-head pin tool (Kalypsis, San Diego, CA) and plates were incubated at 37 degree C in 5% CO2 for an additional 72 h. CellTiter-Glo reagent (Promega) was dispensed into the wells, incubated for 5 min and luminescence was read on a ViewLux instrument (Perkin-Elmer). Cytotoxic compounds were defined as those that yielded a curve class of -1.1, -1.2, -2.1, -2.2, -2.3, or -2.4, a maximum response of >50% and an AC50 of < 10 uM. Cherry-picked hits from screening analysis were tested with both the KB pair of cell lines, and the pcDNA (empty vector control) and MDR-19 (P-gp overexpressing) pair were tested, in the absence and presence of tariquidar.
% is scaled to controls: 0 for no effect and ±100 for the full control effect.

Which activity change, negative = cytotoxicity does the source give for `C/C1=C2N=C(/C=C3N=C(/C(C)=C4\N=C(C(CC(N)=O)C4(C)CCC(=O)NCC(C)OP(=O)([O-])OC4C(CO)OC(n5cnc6cc(C)c(C)cc65)C4O)C4(C)N=C1C(CCC(N)=O)C4(C)CC(N)=O)C(CCC(N)=O)C\3(C)C)C(CCC(N)=O)C/2(C)CC(N)=O.[C-]#N.[Co]` (configuration not stated) here?
The activity change, negative = cytotoxicity was inactive: -9.21%.

With `CC1=C2[N-][C@@](C)([C@@H]3N=C(C(C)=C4N=C(C=C5N=C1[C@@](C)(CC(N)=O)[C@H]5CCC(N)=O)C(C)(C)[C@H]4CCC(N)=O)[C@](C)(CCC(=O)NC[C@@H](C)OP(=O)([O-])O[C@H]1[C@@H](O)[C@@H](n4cnc5cc(C)c(C)cc54)O[C@H]1CO)[C@H]3CC(N)=O)[C@@](C)(CC(N)=O)[C@@H]2CCC(N)=O.[C-]#N.[Co+3]` as the compound, how does the activity change, negative = cytotoxicity read?
Its activity change, negative = cytotoxicity is inactive: -12.5%.

Which activity change, negative = cytotoxicity does the source give for `C/C1=C2N=C(/C=C3N=C(/C(C)=C4\[N-][C@@](C)([C@@H]5N=C1[C@](C)(CCC(=O)NC[C@@H](C)OP(=O)([O-])O[C@H]1[C@@H](O)[C@@H](n6cnc7cc(C)c(C)cc76)O[C@@H]1CO)[C@H]5CC(N)=O)[C@@](C)(CC(N)=O)[C@@H]4CCC(N)=O)[C@@](C)(CC(N)=O)[C@@H]\3CCC(N)=O)C(C)(C)[C@@H]/2CCC(N)=O.[C-]#N.[Co+3]` here?
Its activity change, negative = cytotoxicity is inactive: -6.57%.

Same assay, conditions: KB-8-5-11 (P-gp overexpressing) viability, CellTiter-Glo, 72 h; at 44.5 µM (top of the series)

For `O=[N+]([O-])OCC(CO[N+](=O)[O-])(CO[N+](=O)[O-])CO[N+](=O)[O-]`, which activity change, negative = cytotoxicity is on record?
The activity change, negative = cytotoxicity was inactive: 4.41%.

With `CC(C)N(CCCl)C(C)C` as the compound, how does the activity change, negative = cytotoxicity read?
The activity change, negative = cytotoxicity was inactive: -2.99%.

For `O=[N+]([O-])c1cccc([N+](=O)[O-])c1`, which activity change, negative = cytotoxicity is on record?
The activity change, negative = cytotoxicity was inactive: -3.41%.

With `OCCSCCO` as the compound, how does the activity change, negative = cytotoxicity read?
The activity change, negative = cytotoxicity was inactive: 17.1%.

With `CC(C)OP(=O)(F)OC(C)C` as the compound, how does the activity change, negative = cytotoxicity read?
Its activity change, negative = cytotoxicity is inactive: 3.28%.

For `O=[N+]([O-])[O-].[NH4+]`, which activity change, negative = cytotoxicity is on record?
The activity change, negative = cytotoxicity was inactive: 16%.

With `CN(C)CCS` as the compound, how does the activity change, negative = cytotoxicity read?
Its activity change, negative = cytotoxicity is inactive: 6.27%.

Same assay, conditions: KB-8-5-11 (P-gp overexpressing) viability, CellTiter-Glo, 72 h; at 93.4 µM (top of the series)

With `Cc1cccc([N+](=O)[O-])c1[N+](=O)[O-]` as the compound, how does the activity change, negative = cytotoxicity read?
The activity change, negative = cytotoxicity was inactive: 5.21%.

Which activity change, negative = cytotoxicity does the source give for `O=[N+]([O-])c1cccc([N+](=O)[O-])c1` here?
The activity change, negative = cytotoxicity was inactive: -22.5%.

Reference: PubChem BioAssay (NCATS)
